A word on the pIC50: it is the negative decadic logarithm of the IC50, by convention in mol/L.

This passage reports IC50 results from ChEMBL document CHEMBL3232716, “Tailoring cytotoxicity of antimicrobial peptidomimetics with high activity against multidrug-resistant Escherichia coli” (J Med Chem, 2014).

The structures appear in SMILES notation. pIC50: −log10 of the molar value.

Assay [1] can be described thus: Cytotoxicity against rat IEC-6 cells after 1 hr by MTS/PMS assay. The assay is classed as cell-based. The conditions noted are these: IEC-6, 1 h. In a few lines:
(§1)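 Monolayers (passage 4–10) grown ~21–25 h to ~90% confluence. Seeding per well: HeLa 8000, HepG2 23 000, NIH 3T3 22 000, IEC-6 16 000, Caco-2 25 000. Cells washed with HBSS/10 mM Hepes pH 7.4 and exposed 1 h at 37 °C, 50 rpm, to compound 0–2000 μM in culture medium. MTS 240 μg/mL/PMS 2.4 μg/mL for 1.5–4 h, A492. Viability referenced to SDS and untreated controls; IC50 from one biological replicate in triplicate.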

A short description of assay [2]: Cytotoxicity against mouse NIH/3T3 cells after 1 hr by MTS/PMS assay. The conditions noted are these: NIH3T3, 1 h. The assay is classed as cell-based. The method, boiled down: as §1

As for `CC[C@H](C)[C@H](NC(=O)CN)C(=O)NCC(=O)N[C@@H](C)C(=O)N[C@H](C(=O)N[C@@H](CC(C)C)C(=O)N[C@@H](CCCCN)C(=O)N[C@H](C(=O)N[C@@H](CC(C)C)C(=O)N[C@H](C(=O)N[C@H](C(=O)NCC(=O)N[C@@H](CC(C)C)C(=O)N1CCC[C@H]1C(=O)N[C@@H](C)C(=O)N[C@@H](CC(C)C)C(=O)N[C@H](C(=O)N[C@@H](CO)C(=O)N[C@@H](Cc1c[nH]c2ccccc12)C(=O)N[C@H](C(=O)N[C@@H](CCCCN)C(=O)N[C@@H](CCCNC(=N)N)C(=O)N[C@@H](CCCCN)C(=O)N[C@@H](CCCNC(=N)N)C(=O)N[C@@H](CCC(N)=O)C(=O)N[C@@H](CCC(N)=O)C(N)=O)[C@@H](C)CC)[C@@H](C)CC)[C@@H](C)O)[C@@H](C)O)C(C)C)C(C)C` [MELITTIN], the negative-log IC50 (pIC50) was 5.66 in assay [1] and 5.19 in assay [2].
